The values below come from US20110257035A1, “IDENTIFICATION OF SIGNATURE GENES ASSOCIATED WITH HEPATOCELLULAR CARCINOMA” (Bayer Healthcare LLC, priority 2008, published 2011).

Test [1] relates to plasma bFGF. As to the kind of experiment: Plasma bFGF level, baseline vs C3D1, HCC patients. The test is classed as in vivo, human. Particulars: sorafenib arm, baseline mean 14.1.
Test [2] concerns plasma s-VEGFR-3. As to the method:
(§1) Plasma samples were obtained from patients at the time of screening, C3D1, and at the end of treatment visit.
(§2) All six assays were sandwich immunoassays obtained from commercial sources. All assays were performed according to the manufacturers' protocols, as summarized below. All samples were assayed in duplicate and the average value was used for correlative analysis.
Appropriately diluted samples and standards were pipetted into the wells, allowing capture of the target protein by the immobilized antibodies.

In test [3] the test system is plasma s-VEGFR-2. As for the experimental part:
as §1, §2
ELISA kits for VEGF (cat #DVE00), s-VEGFR-2 (cat #DVR200), HGF (cat #DHG00), and c-KIT (cat #DSCR00) were obtained from R&D Systems.
A monoclonal capture antibody specific to the target protein was provided pre-coated in microplate wells. Appropriately diluted samples and standards were pipetted into the wells, allowing capture of the target protein by the immobilized antibodies. Unbound sample was washed away, and a horseradish peroxidase-conjugated antibody also specific for the target protein was added to the wells. Wells were washed again, and a substrate solution was added to each well. The colored reaction product was measured spectrophotometrically and was translated to the quantity (pg/mL or ng/mL) of biomarker protein in the sample by use of a simultaneously generated standard curve.

Where [4] appears, read: plasma level, in response to sorafenib treatment.
[5] abbreviates: sorafenib arm, C3D1, mean of per-subject absolute change, p vs placebo <0.0001.

`CNC(=O)c1cc(Oc2ccc(NC(=O)Nc3ccc(Cl)c(C(F)(F)F)c3)cc2)ccn1` [Sorafenib]: in test [1], the “bFGF Mean (d)” value stood at 16.1 pg/mL. In addition, the “s-VEGFR-3 Mean change in sorafenib arm” value in test [2] (setting [4]) was −14.1%. Further, the “VEGFR-3 Δ from BL (e)” value in test [2] (setting [5]) is listed as -6826.3 pg/mL. In test [2] (sorafenib arm, C3D1, baseline mean 44754.1), the “VEGFR-3 Mean (d)” value was determined as 37903.8 pg/mL. Further, the “s-VEGFR-2 Mean change in sorafenib arm” value in test [3] (setting [4]) was −25.7%. The “VEGFR-2 Δ from BL (e)” value in test [3] (setting [5]) was -2295.8 pg/mL. In addition, the “VEGFR-2 Mean (d)” value in test [3] (sorafenib arm, C3D1, baseline mean 8773.4) came to 6395.6 pg/mL.
